Here are results for one compound from ChEMBL document CHEMBL1132633, “Secondary structure peptide mimetics: design, synthesis, and evaluation of beta-strand mimetic thrombin inhibitors” (J Med Chem, 1999).

The target of the test is Prothrombin (Homo sapiens, UniProt P00734). The experiment in a line: Inhibitory concentration against thrombin.

The term Ki denotes the dissociation constant of the complex between target and ligand, obtained from inhibition or displacement. In turn, `N=C(N)NCCC[C@H](NC(=O)[C@@H]1CCN2CC[C@@](N)(Cc3ccccc3)CN12)C(=O)C(=O)NCc1ccccc1` returned a Ki of 0.073 nM.
